Test: Salt spray test, alkyd formulations (Example VI, FIG. 3)
Details: alkyd formulation, ASTM B117-73, in words

Zinc Succinate Ethylenediamine [Compound 1]
Salt spray durability, comparison: superior to "Zinc Yellow" (zinc chromate) in salt spray durability

From patent publication US4626283A, “Corrosion and marine growth inhibiting compositions” (Engelhard Corporation, priority 1985, dated 1986)
